# Measurements as given in patent US8962658B2, “Fluoralkylcarbonyl-oxadiazoles” (Universite de Droit et de la Sante de Lille 2, priority 2011, dated 2015).
# Protein sequences, listed by entry. Tags and fused reporters are not part of them. Lines headed by an entry give the natural chain unless they say otherwise; changes in a name come on top.
# UniProt P9WMC1: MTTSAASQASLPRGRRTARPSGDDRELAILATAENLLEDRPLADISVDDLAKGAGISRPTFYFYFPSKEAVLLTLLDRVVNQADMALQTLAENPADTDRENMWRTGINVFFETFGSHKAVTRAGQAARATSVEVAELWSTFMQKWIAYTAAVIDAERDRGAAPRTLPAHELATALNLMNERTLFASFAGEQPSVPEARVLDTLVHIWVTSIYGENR
# pIC50: −log10 of the molar value.
# Target: EthR binding to its DNA operator (ethA promoter region) (Mycobacterium tuberculosis, UniProt P9WMC1)
# Details: concentration of ligand that inhibits 50% of the interaction of EthR with its promoter; SPR
row,SMILES,pIC50
1,"O=C(CCC(F)(F)F)N1CCC(c2nc(-c3cccs3)no2)CC1 [Compound 3, 4-4-4-trifluoro-1-[4-(3-thiophen-2-yl-[1,2,4]oxadiazol-5-yl)-piperidin-1-yl]butan-1-one, reference compound]",5.80
2,"COc1ccc2nc(-c3noc(C4CCN(C(=O)CCC(F)(F)F)CC4)n3)sc2c1 [Compound 7, 4,4,4-Trifluoro-1-{4-[3-(6-methoxy-benzothiazol-2-yl)-1,2,4-oxadiazol-5-yl]-piperidin-1-yl}-butan-1-one]",6.00
3,"O=C(CCC(F)(F)F)N1CCC(c2nc(-c3ccccc3)no2)CC1 [Compound 8, 4,4,4-Trifluoro-1-[4-(3-phenyl-1,2,4-oxadiazol-5-yl)-piperidin-1-yl]-butan-1-one]",5.04
4,O=C(CCC(F)(F)F)N1CC[C@@H](c2nc(-c3cccs3)no2)C1 [Compound 2],5.70
